What was measured:
human NK1 receptor = human NK1 receptor (Homo sapiens, UniProt P25103); test: Binding power to NK1 receptors in vitro ([3H]-Substance P displacement, CHO cell membranes); details: human NK1 receptor in CHO membranes, ligand [3H]-Substance P
NK1 receptors [1] = target: T1, NK1 receptors (Cavia porcellus, UniProt P30547); test: Functional NK1 antagonism on isolated guinea pig aorta rings (inhibition of Substance P-induced relaxation); details: phenylephrine tone, 0.01 μmol Substance P
NK2 receptors [2] = target: T2, NK2 receptors (Cavia porcellus, UniProt Q64077); test: NK2-receptor-antagonistic effectiveness in vivo in anesthetized guinea pigs (NKA-induced late hypotension, bronchoconstriction, colonic motility); details: guinea pig
human NK2 receptor = human NK2 receptor (Homo sapiens, UniProt P21452); test: Binding power to NK2 receptors in vitro ([3H]-SR 48968 displacement, CHO cell membranes); details: human NK2 receptor in CHO membranes, ligand [3H]-SR 48968, 90 min incubation
NK1 receptors [3] = target: T1, NK1 receptors; test: NK1-receptor-antagonistic effectiveness in vivo in anesthetized guinea pigs (NKA-induced early hypotension); details: guinea pig
NK2 receptors [4] = target: T2, NK2 receptors; test: Functional NK2 antagonism on isolated guinea pig gall-bladder (inhibition of NKA-induced contraction); details: NKA 0.1 μmol/l, two hours' incubation, IC50 in mol/l
[5] = i.v., NKA stimulus 1 min after dosing
[6] = oral, AUC 1-180 min after administration

The chains behind the UniProt entries cited, without tags or fusion partners.
UniProt P25103, whole entry: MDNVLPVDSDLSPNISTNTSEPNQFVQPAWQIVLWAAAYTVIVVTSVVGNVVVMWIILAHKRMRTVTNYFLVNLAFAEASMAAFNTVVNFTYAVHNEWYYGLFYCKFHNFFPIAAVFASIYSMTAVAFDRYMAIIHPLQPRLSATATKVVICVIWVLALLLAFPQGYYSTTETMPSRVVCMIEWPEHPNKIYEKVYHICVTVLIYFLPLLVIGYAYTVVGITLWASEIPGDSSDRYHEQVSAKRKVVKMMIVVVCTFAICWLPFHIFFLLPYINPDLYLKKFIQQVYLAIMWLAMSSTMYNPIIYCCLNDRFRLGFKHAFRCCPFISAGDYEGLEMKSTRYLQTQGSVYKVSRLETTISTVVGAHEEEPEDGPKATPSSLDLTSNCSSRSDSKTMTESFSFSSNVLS
UniProt P30547, whole entry: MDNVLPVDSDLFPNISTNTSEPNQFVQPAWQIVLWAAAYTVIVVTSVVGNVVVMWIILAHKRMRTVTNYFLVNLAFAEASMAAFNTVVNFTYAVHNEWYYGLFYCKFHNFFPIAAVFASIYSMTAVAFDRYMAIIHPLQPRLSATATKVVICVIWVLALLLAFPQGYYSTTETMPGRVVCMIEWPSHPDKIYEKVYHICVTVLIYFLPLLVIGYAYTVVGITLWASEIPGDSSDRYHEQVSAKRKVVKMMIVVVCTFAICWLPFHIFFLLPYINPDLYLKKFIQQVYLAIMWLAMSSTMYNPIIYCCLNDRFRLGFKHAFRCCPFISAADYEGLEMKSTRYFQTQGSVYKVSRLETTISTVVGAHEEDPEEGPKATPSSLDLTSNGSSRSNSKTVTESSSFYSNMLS
UniProt Q64077, whole entry: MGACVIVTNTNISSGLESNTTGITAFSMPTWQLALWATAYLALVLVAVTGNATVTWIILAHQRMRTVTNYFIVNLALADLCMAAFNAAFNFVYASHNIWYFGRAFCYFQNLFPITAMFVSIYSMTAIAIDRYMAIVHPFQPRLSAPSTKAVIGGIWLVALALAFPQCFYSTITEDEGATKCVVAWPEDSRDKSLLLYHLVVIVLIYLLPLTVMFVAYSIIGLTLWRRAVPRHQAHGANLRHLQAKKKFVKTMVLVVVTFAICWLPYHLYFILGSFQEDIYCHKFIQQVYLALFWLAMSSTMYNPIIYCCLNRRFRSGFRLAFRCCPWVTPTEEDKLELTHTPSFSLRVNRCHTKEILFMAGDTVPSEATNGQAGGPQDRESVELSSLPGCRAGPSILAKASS
UniProt P21452, whole entry: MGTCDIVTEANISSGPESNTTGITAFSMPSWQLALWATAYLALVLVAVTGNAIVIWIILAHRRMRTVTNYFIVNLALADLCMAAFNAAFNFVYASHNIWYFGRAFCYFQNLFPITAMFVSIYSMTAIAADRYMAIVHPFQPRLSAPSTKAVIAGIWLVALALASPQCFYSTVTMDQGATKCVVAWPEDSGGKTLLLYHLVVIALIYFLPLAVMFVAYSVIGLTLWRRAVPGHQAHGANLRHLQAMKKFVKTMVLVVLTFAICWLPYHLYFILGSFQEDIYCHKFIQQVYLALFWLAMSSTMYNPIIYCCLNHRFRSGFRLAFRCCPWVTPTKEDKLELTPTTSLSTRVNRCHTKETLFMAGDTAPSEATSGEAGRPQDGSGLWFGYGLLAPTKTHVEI

pKi (NK1) (human NK1 receptor)	pEC50 (NK1 receptors [1])	ED50 iv after 1 min (cumulative), NK2 (bronchoconstriction) (NK2 receptors [2]; [5]) [µmol/kg]	ED50 iv after 1 min (cumulative), NK2 (colonic motility) (NK2 receptors [2]; [5]) [µmol/kg]	ED50 iv after 1 min (cumulative), NK2 (late hypotension) (NK2 receptors [2]; [5]) [µmol/kg]	oral activity as NK2 receptor antagonist (in words) (NK2 receptors [2]; oral)	ED50 AUC1–180 min oral, NK2 (bronchoconstriction) (NK2 receptors [2]; [6]) [µmol/kg]	ED50 AUC1–180 min oral, NK2 (colonic motility) (NK2 receptors [2]; [6]) [µmol/kg]	ED50 AUC1–180 min oral, NK2 (late hypotension) (NK2 receptors [2]; [6]) [µmol/kg]	pKi (NK2) (human NK2 receptor)	ED50 iv after 1 min (cumulative), NK1 (early hypotension) (NK1 receptors [3]; [5]) [µmol/kg]	oral activity as NK1 receptor antagonist (in words) (NK1 receptors [3]; oral)	ED50 AUC1–180 min oral, NK1 (early hypotension) (NK1 receptors [3]; [6]) [µmol/kg]	pIC50 (NK2 receptors [4])	SMILES
8.5	9.5	<0.010	0.085	0.106	active orally	11.7	6.0	14.8	7.1	<0.010	active orally	15.2	7.7	CN(C[C@@H](CCN1CCN([C@@H](c2ccco2)[C@H](O)C(O)[C@H](O)CO)CC1)c1ccc(Cl)c(Cl)c1)C(=O)c1cc(C#N)cc2ccccc12 (single isomer, unassigned) [2]
8.8	–	–	–	–	–	–	–	–	7.2	–	–	–	–	CN(C[C@@H](CCN1CCN([C@@H](c2ccco2)[C@H](O)C(O)[C@H](O)CO)CC1)c1ccc(Cl)c(Cl)c1)C(=O)c1cc(C#N)cc2ccccc12 (single isomer, unassigned) [3]

— patent publication US7592344B2, “NK1 and NK2-antagonists and compositions and methods of using the same” (Solvay Pharmaceuticals GmbH, priority 2005, dated 2009)
